# The entries are a selection whose mix differs from that of the whole data set. Active and inactive are the calls of the source. The calls were made as follows: active = max response of -50% or lower; inconclusive = between -30% and -50%; inactive = -30% or higher.
# Amino acid sequences for entries named in this document (tags omitted). A change or cut given only in a name is not applied to a line headed by its entry.
# UniProt P48426: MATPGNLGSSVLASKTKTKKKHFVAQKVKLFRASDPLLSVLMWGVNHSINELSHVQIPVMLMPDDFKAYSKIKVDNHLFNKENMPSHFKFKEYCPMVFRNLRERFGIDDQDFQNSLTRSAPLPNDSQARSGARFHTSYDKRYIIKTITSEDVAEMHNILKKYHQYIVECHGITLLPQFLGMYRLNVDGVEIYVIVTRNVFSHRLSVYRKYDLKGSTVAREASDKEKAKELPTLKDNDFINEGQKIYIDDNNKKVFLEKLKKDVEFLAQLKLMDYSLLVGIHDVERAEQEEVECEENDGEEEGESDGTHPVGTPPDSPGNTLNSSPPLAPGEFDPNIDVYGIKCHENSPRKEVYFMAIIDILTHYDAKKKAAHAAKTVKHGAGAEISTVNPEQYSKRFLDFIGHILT
# Target: Phosphatidylinositol 5-phosphate 4-kinase type-2 alpha (Homo sapiens) (UniProt P48426)
# Assay: qHTS for Inhibitors of phosphatidylinositol 5-phosphate 4-kinase (PI5P4K); also: value at the top dose of about 77 µM
# Conditions: PI5P4Kalpha enzyme, ADP-Glo luminescence, 60 min; stronger effect = lower value
# Description: In addition to finding PI5P, we discovered the type II phosphatidylinositol 5-phosphate 4-kinase (PI5P4K) family (alpha, beta, gamma isoforms) that catalyze the conversion of PI5P to PI(4,5)P2. Alternatively, PI(4,5)P2 can also be synthesized through phosphatidylinositol-4-phosphate (PI4P) by the type I phosphatidylinositol 4-phosphate 5-kinases (PI4P5K). These PI5P4K enzymes therefore represent one way by which cells can regulate endogenous PI5P levels and play important roles in insulin signaling and in stress responses.
# This proposal aims to identify and optimize specific modulators of human PI5P4K, phosphatidylinositol-5-phosphate 4-kinase (Type II PIPK), a family of kinases that regulate AKT signaling and tumor cell growth. In this project we aim to identify inhibitors of human PI5P4K using a quantitative high-throughput screening approach against the MLSMR containing ~400,000 small molecules.
# NIH Chemical Genomics Center [NCGC]
# NIH Molecular Libraries Probe Centers Network [MLPCN]
# Assay Submitter (PI): Atsuo Sasaki, Beth Israel Deaconess Medical Center
# 2 microL of PI5P4Kalpha/substrate buffer (columns 1-2, 5-48) are dispensed into Greiner white solid bottom 1536-well assay plates; column 3 receives only PI5P4Kalpha buffer as 0x substrate controls; column 4 receives only substrate buffer as 0x PI5P4Kalpha controls. Final assay buffer consists of 0.038 M HEPES pH 7.4, 0.28 mM EGTA, 0.1% CHAPS, and 5% DMSO (final concentration). Compounds are then transferred via Kalypsys pin tool equipped with 1536-pin array (10 nL slotted pins, V&P Scientific, San Diego, CA). Following addition of compound, 1 microL of ATP (5 microM final concentration, all columns) is added to initiate the reaction. ATP is diluted in an assay buffer consisting of 0.02 M HEPES pH 7.4, 60 mM MgCl2, 15 microM ATP, and 0.1% CHAPS. The plates are then incubated at room temperature for 60 minutes. ADP-Glo reagent 1 is added (2 microL) and plates incubated for 45 minutes, before ADP-Glo reagent 2 (4 microL) is added and plates incubated for 30 minutes. They are then transferred to a ViewLux high-throughput CCD imager (PerkinElmer) wherein single end-point measurements of luminescence are acquired using a clear filter.
# % is scaled to controls: 0 for no effect and ±100 for the full control effect.
row,SMILES,max response
1,O=[N+]([O-])c1cc(Oc2ccc([N+](=O)[O-])cc2C(F)(F)F)cc([N+](=O)[O-])c1,inactive: 3.82%
2,COc1ccc(N/C(=N/P(=O)(N2CCOCC2)N2CCOCC2)N2CCOCC2)cc1,inactive: -4.71%
3,O=P1(N(CCCl)CCCl)OCCCN1CCCl (stereo not given),inactive: 1.47%
4,O=P1(N(CCCl)CCCl)Nc2ccccc2N1,inactive: -0.756%
5,COc1ccc2nc(NP(=O)(c3ccccc3)c3ccccc3)sc2c1,inactive: 5.73%
6,COc1cc(I)ccc1[As](=O)(O)O,inactive: -2.93%
7,Cc1c2c(nc3ccccc13)SC(C(Cl)Cl)C2 (stereo not given),inactive: 1.45%
8,O=C(OC1CN2CCC1CC2)C12CC3CC(CC(C3)C1)C2 (stereo not given),inactive: -0.243%
9,Cc1cc(=O)[nH]c(N[N+](=O)[O-])n1,inactive: 3.83%
10,CCN(CC)C(=S)SC(NC=O)C(Cl)(Cl)Cl (stereo not given),inactive: 5.79%
11,O=C(OC1CN2CCC1CC2)c1cccc2[nH]cnc12 (stereo not given),inactive: -4.65%
12,CC(C)NC(=O)NP(=O)(Oc1ccccc1)Oc1ccccc1,inactive: 4.85%
13,ClCCSc1nnc(-c2cccnc2)o1,inactive: -1.48%
14,CC(C)c1ccc(OP(=O)(Nc2ccccn2)Oc2ccccc2F)cc1 (stereo not given),inactive: -0.433%
15,COC(=O)C1(C)COP(=O)(N2CCCCCC2)OC1 (stereo not given),inactive: -1.59%
16,Cc1ccc(OP(=O)(Nc2ccc([N+](=O)[O-])cn2)Oc2ccc(C)cc2)cc1,inactive: 1.6%
17,[N-]=[N+]=NC1CCCCC1NC(=O)c1cc([N+](=O)[O-])cc([N+](=O)[O-])c1 (stereo not given),inactive: 0.0224%
18,Cc1ccc2nc3c(c(C)c2c1)CC(C(Cl)Cl)S3 (stereo not given),inactive: -1.24%
19,O=[As](O)(c1ccc(O)cc1)c1ccccc1O,inactive: 8.49%
20,C[As](=O)(O)c1cccc(C(=O)O)c1,inactive: -1.77%
21,COc1cc(C(=O)NCC2(N3CCOCC3)CCCCC2)ccc1OCC(C)C,inactive: 8.1%
22,O=[N+]([O-])c1ccc(-c2cc([N+](=O)[O-])c(O)c([N+](=O)[O-])c2)cc1,active: -61.7%
23,Cc1cc(SC(NC=O)C(Cl)(Cl)Cl)ncn1 (stereo not given),active: -95.3%
24,O=P(Nc1ccccn1)(c1cccc2ccccc12)c1cccc2ccccc12,inactive: 0.0242%
25,O=[N+]([O-])c1ccc(Nc2ccc(Oc3ccc([N+](=O)[O-])cc3[N+](=O)[O-])cc2)c([N+](=O)[O-])c1,inactive: -3.31%

row,SMILES,max response
1,CCOC(=O)Nc1cccc([As](=O)(O)O)c1,inactive: 3.71%
2,COP(=O)(OC)N1CC1c1ccccc1 (stereo not given),inactive: -8.72%
3,CCCCOc1ccc(C(=O)NCC2(N3CCCCC3)CCCCC2)cc1OC,inactive: -1.49%
4,O=C(O)C(O)c1ccc(N(CCCl)CCCl)cc1 (stereo not given),inactive: -11.8%
5,CCOC(=O)Nc1ccc([As](=O)(O)O)c(O)c1,inactive: 3.79%
6,CC1CCNP(=O)(N(CCCl)CCCl)O1 (stereo not given),inactive: 1.01%
7,CCC(C)N(CC(C)C)C(=S)SC(NC(C)=O)C(Cl)(Cl)Cl (stereo not given),inactive: -4.01%
8,O=C(OC1CN2CCC1CC2)c1cccc([N+](=O)[O-])c1 (stereo not given),inactive: 1.32%
9,CCOC(=O)c1ccc(NC(=O)C(C)(CCl)SC)cc1 (stereo not given),inactive: -1.27%
10,O=C(O)C(=O)c1ccc(N(CCCl)CCCl)cc1,inactive: -12%
11,O=C(COc1ccccc1)OC1CN2CCC1CC2 (stereo not given),inactive: 1.41%
12,O=C(Nc1ccncc1[N+](=O)[O-])c1ccc([N+](=O)[O-])cc1[N+](=O)[O-],inactive: 0.994%
13,COC(=O)C1(C)COP(=O)(N2CCCC2)OC1 (stereo not given),inactive: -2.37%
14,CN(C(=O)Cc1ccc(Cl)c(Cl)c1)[C@@H]1CCCC[C@H]1N1CCCC1,inactive: -0.578%
15,CC(C)/C=N\N=C(\N)N[N+](=O)[O-],inactive: 3.28%
16,CC1(CBr)Cn2c(nc3ccccc3c2=O)S1 (stereo not given),inactive: 4.56%
17,COc1ccccc1CNC(=O)COC(=O)C(O)(c1ccccc1)c1ccccc1,inactive: -3.33%
18,Clc1n[nH]nc1-c1nn[nH][15n]1,inactive: 0%
19,O=P1(N(CCCl)CCCl)NCCC(C(F)(F)F)O1 (stereo not given),inactive: 7.84%
20,CC(C)(C)C(=O)NC(Sc1ncccn1)C(Cl)(Cl)Cl (stereo not given),inactive: 5.43%
21,CCC1=CC2Cc3nc4ccc(Cl)cc4c(N)c3C(C1)C2 (stereo not given),inactive: 0.676%
22,O=P1(Nc2ccccn2)COc2ccccc2OC1,inactive: 5.42%
23,CCOP(=O)(NC(=NC(C)c1ccccc1)NC(C)c1ccccc1)OCC (stereo not given),inactive: -2.69%
24,CCOP(=O)(Nc1ccc(C)cn1)OCC,inactive: 2.04%
25,Nc1cccc([As](=O)(O)c2ccccc2)c1,inactive: 0.334%

row,SMILES,max response
1,NS(=O)(=O)c1cccc(NC(=O)COC(=O)C(O)(c2ccccc2)c2ccccc2)c1,inactive: 3.85%
2,O=P1(Nc2ccc(Br)cn2)COc2ccccc2OC1,inactive: -2.66%
3,Cc1ccc(OCC(=O)OC2CN3CCC2CC3)cc1 (stereo not given),inactive: 3.89%
4,O=[As](O)(c1cccs1)c1cccs1,inactive: 3.11%
5,Cc1ccc(S(=O)(=O)N(CCCN)CCCc2c(C)nc(N)[nH]c2=O)cc1,inactive: -26.7%
6,O=P1(Nc2ncccn2)COc2ccccc2OC1,inactive: -15.7%
7,CN(C)C1(CNC(=O)c2ccc(S(C)(=O)=O)cc2)CCCCC1,inactive: -3.93%
8,O=C(/C=C/c1ccccc1)OC1CN2CCC1CC2 (stereo not given),inactive: 2.88%
9,CCCC1OP(=O)(Nc2ccccc2)OCC1CC (stereo not given),inactive: 2.52%
10,Cc1ccc(C(=O)OC2CN3CCC2CC3)cc1 (stereo not given),inactive: 3.23%
11,CC1CCC(C(C)C)C(OP(=O)(Nc2ccccn2)c2ccccc2)C1 (stereo not given),inactive: 5.64%
12,N#CCCN(C(=O)COC(=O)C(O)(c1ccccc1)c1ccccc1)c1ccc(F)cc1,inactive: -0.579%
13,CN(C(=O)Cc1ccccc1)[C@@H]1CC[C@]2(CCCO2)C[C@H]1N1CCCC1,inactive: -0.226%
14,CN(C)C(=O)c1cc([N+](=O)[O-])cc2c1-c1c(cc([N+](=O)[O-])cc1[N+](=O)[O-])C2=O,inactive: 3.34%
15,CN(C(=O)Cc1ccc(Cl)c(Cl)c1)[C@H]1CC[C@@]2(CCCO2)C[C@@H]1N1CCCC1,inactive: 1.8%
16,NC(=O)Nc1ccc([As](=O)(O)O)cc1,inactive: -3.58%
17,O=C(O)COc1ccc([As](=O)(O)O)cc1[N+](=O)[O-],inactive: 2.27%
18,Nc1ccccc1[As](=O)(O)c1ccccc1,inactive: -2.7%
19,O=P(Nc1nccs1)(c1ccccc1)c1nc2ccccc2s1 (stereo not given),active: -82.4%
20,O=P(Nc1nccs1)(Oc1ccccc1)Oc1ccccc1,inactive: -1.37%
21,CS(=O)(=O)c1cc([N+](=O)[O-])c2no[n+]([O-])c2c1,active: -84.5%
22,COc1cc(C2NCCC3(OCCO3)C2(C)C)cc(OC)c1OC (stereo not given),inactive: -0.0454%
23,CCOP(=O)(Nc1cccc2ccccc12)OCC,inactive: -0.278%
24,Cc1ccc(NCCc2c([N+](=O)[O-])cc([N+](=O)[O-])cc2[N+](=O)[O-])cc1,inactive: -27.3%
25,Nc1cccc2c([As](=O)(O)O)cccc12,inactive: 1.12%

row,SMILES,max response
1,CCCOP(=S)(Nc1nc(N)cc(=O)[nH]1)OCCC,inactive: 6.36%
2,O=[As](O)(c1cccc(O)c1)c1cccc(O)c1,inactive: -1.19%
3,Cc1cccc(OCC(=O)OC2CN3CCC2CC3)c1 (stereo not given),inactive: -10.6%
4,O=C(OC1CN2CCC1CC2)c1ccc(Cl)cc1 (stereo not given),inactive: -0.642%
5,COc1cc(C(=O)NCC2(N3CCOCC3)CCCCC2)cc(Cl)c1OC(C)C,inactive: 1.89%
6,O=[As](O)(O)c1cccnc1,inactive: -0.83%
7,CS(=O)(=O)c1ccc(Cl)c(NC(=O)COC(=O)C(O)(c2ccccc2)c2ccccc2)c1,inactive: 5.77%
8,CC(=O)Nc1ccc([As](=O)(O)O)c(O)c1,inactive: 0.226%
9,Cc1ccccc1CN(C)C(=O)COC(=O)C(O)(c1ccccc1)c1ccccc1,inactive: 6.37%
10,C[C@@H]1C=CCP(=O)(Oc2ccccc2)O1 (stereo not given in full),inactive: -2.65%
11,C[C@H]1OP(=O)(Oc2ccccc2)C[C@@H]2O[C@@H]21 (stereo not given in full),inactive: -1.45%
12,N#C/C(=C\c1ccc(N(CCBr)CCBr)cc1)C(N)=O,inactive: -15%
13,CC(=O)c1ccc(N2CC2c2ccncc2)cc1 (stereo not given),inactive: -2.76%
14,COC(=O)C1(C)COP(=O)(NCc2ccccc2)OC1 (stereo not given),inactive: 10.5%
15,CC(C)(C)C(=O)NC(Sc1ccccc1)C(Cl)(Cl)Cl (stereo not given),inactive: 16.5%
16,CCc1cc(O)c([N+](=O)[O-])c(C)c1[N+](=O)[O-],inactive: -21.3%
17,O=P1(Nc2nc3ccc(Cl)cc3s2)COc2ccccc2O1 (stereo not given),inactive: -2.89%
18,CCOc1ccc(C2=NCC(CBr)S2)cc1 (stereo not given),inactive: -4.8%
19,Cc1ccccc1OP(=O)(Nc1ccccn1)Oc1ccccc1C,inactive: 8.1%
20,CC(NC(=O)COC(=O)C(O)(c1ccccc1)c1ccccc1)c1ccccc1 (stereo not given),inactive: -2.87%
21,CN(C)C(=O)Oc1noc2ccccc12,inactive: 0.0606%
22,O=c1c2cc([N+](=O)[O-])ccc2[nH]c2c([N+](=O)[O-])cc([N+](=O)[O-])cc12,inactive: -10.3%
23,O=C(OC1CN2CCC1CC2)c1ccccc1 (stereo not given),inactive: -6.2%
24,CCC(=O)N1C2C3N(C(=O)CC)C1C1N(C(=O)CC)C(C(N1C(=O)CC)N3C(=O)CC)N2C(=O)CC,inactive: -3.34%
25,COC(=O)c1cc2c(s1)N=C(c1ccccc1)N(C)P2(=O)N1CCOCC1 (stereo not given),inactive: -0.791%
